US9493412B2, “Pyrrolinone carboxamide compounds useful as endothelial lipase inhibitors” (BRISTOL-MYERS SQUIBB COMPANY, priority 2011, dated 2016)

Chains of the proteins cited; added tags and fusions are not shown. Residues count along the entry.
UniProt Q9Y5X9, 21-500 limits assumed: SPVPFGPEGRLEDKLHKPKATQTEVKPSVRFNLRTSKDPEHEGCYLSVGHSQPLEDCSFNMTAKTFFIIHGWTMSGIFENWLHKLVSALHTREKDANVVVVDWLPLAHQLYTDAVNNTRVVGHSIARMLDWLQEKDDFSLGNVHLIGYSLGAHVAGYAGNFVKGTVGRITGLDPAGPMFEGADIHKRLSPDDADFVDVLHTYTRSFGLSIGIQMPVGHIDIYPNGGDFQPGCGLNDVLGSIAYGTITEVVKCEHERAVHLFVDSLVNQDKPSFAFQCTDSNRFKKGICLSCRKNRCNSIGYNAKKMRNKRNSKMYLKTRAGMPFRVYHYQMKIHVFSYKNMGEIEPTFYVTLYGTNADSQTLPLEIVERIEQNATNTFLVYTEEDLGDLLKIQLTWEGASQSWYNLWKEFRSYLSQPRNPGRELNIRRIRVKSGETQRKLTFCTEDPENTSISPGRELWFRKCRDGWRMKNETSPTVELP

Molecular target: endothelial lipase (EL) (Homo sapiens (Human), UniProt Q9Y5X9)
Assay: Endothelial lipase (EL) enzymatic assay with fluorescent substrate A10070 in DMPG vesicles
Conditions: read-out: HLE_EL_CRC IC50; conditioned media from HT-1080 cells overexpressing endogenous EL; 20 min preincubation at 37° C.

IC50: 8.28 µM
Compound: O=C(N[C@H]1CC[C@@H](c2ccccc2)CC1)C1=C(O)C(=O)N2CCCCC12 (stereo partly shown)
